Measured values taken from article PMC12389735, “Polyoxypregnane Aryl Esters Prepared from Metaplexis japonica (Thunb.) Makino and Their Role in Reversing Multidrug Resistance in HepG2/Dox Cells” (Pharmaceuticals, 2025).

System: HepG2 cells
Test: cells
Settings: Homo sapiens, HepG2, 48 h, read-out: IC50 ± SD HepG2

Row | Compound | IC50 [nM]
1 | CC[C@]1(O)C[C@@H]2CN(CCc3c([nH]c4ccccc34)[C@@](C(=O)OC)(c3cc4c(cc3OC)N(C)[C@H]3[C@@](O)(C(=O)OC)[C@H](OC(C)=O)[C@]5(CC)C=CCN6CC[C@]43[C@@H]65)C2)C1 [Vinblastine, reference compound] | 17 ± 4
2 | CC(=O)O[C@H]1C(=O)[C@@]2(C)[C@H]([C@H](OC(=O)c3ccccc3)[C@]3(O)C[C@H](OC(=O)[C@H](O)[C@@H](NC(=O)c4ccccc4)c4ccccc4)C(C)=C1C3(C)C)[C@]1(OC(C)=O)CO[C@@H]1C[C@@H]2O [Paclitaxel, reference compound] | 31 ± 2
